Tests used:
Format in all cases: in vivo
[1] = tested on: fmr1 KO mice and wild type mice; assay: Social behavior test in Fragile X (fmr1 KO) mouse model; details: 30 mg/kg i.p. acute
Procedure: FIG. 4A plots the time (s) that the test mouse devotes to exploring two cylinders: a first cylinder containing a familiar genotype-matched juvenile stimulus mouse and a second cylinder containing a novel stimulus mouse and the total time of exploration (both cylinders) during a 10 min session. FIG. 4B Plots the percentage of time spent near the two cylinders during the 10 min session. FIG. 4C plots the Discrimination index (time exploring the novel stimulus−time exploring the familiar stimulus/total time of exploration×100).
N=10-12 mice per group. Mice had received an acute i.p. injection of saline (WT 1st bar, fmr1 KO 3rd bar) or 30 mg/kg Example 2 (Wild Type 2nd bar, fmr1 KO 4th bar) 24 h before the session. Data are expressed as mean±S.E.M. Two way ANOVA Treatment effect Φ p<0.05, Genotype x Treatment interaction p<0.05, Bonferroni as post hoc ***p<0.001, **p<0.01, *p<0.05.
Example 2 effects on social disability in a model of Fmr1 KO was performed. […]
1) Habituation session Animals were habituated for 10 min to an arena containing two empty transparent cylinders (30 cm diameter×40 cm high) made of Plexiglas. […] The discrimination index was calculated as time exploring the novel stimulus mouse−time exploring the familiar stimulus mouse/total time of exploration×100. […]

[2] = tested on: wild type old mice; assay: Chronic 3 month treatment, novel object recognition in wild type old mice; details: 10 mg/kg/day oral for 3 months
Procedure: The effects of chronic administration of the compound of Example 2 administered by oral intake (10 mg/kg/day during 3 months through access to inverted graduated 25 mL filled with tap water) on cognition in wild type old mice were studied. To examine the effect of chronic treatment for 3 months with the compound of Example 2, the novel objet recognition and the Y maze tests were used.

[3] = tested on: mice; assay: Tail suspension assay in mice; details: 30 mg/kg intraperitoneally, 60 minutes after dosing
Procedure: Another method of measuring antidepressant activity that may be used to evaluate the compounds of the present invention is the tail suspension test in mice described in Vogel, H. G. and Vogel, W. H. (Eds.) Drug Discovery and Evaluation, Springer-Verlag Berlin Heidelberg, 1997) pp. 304-3059). The mouse tail suspension assay was conducted 60 minutes after dosing. The duration of immobility was recorded for a period of 5 minutes after tail suspension was initiated, and reduction in the duration of immobility by ≥50% relative to the control group indicated antidepressant activity. Statistical analysis was also performed by using one-way ANOVA followed by Dunnett's test to compare the data of test compound-treated and vehicle control groups. Significance was considered to be P<0.05.

CNCCC(Oc1ccc(CCO)cc1)c1ccccc1.Cl (single isomer, unassigned) [Example 2, 2-[4-[3-(Methylamino)-1-phenylpropoxy]phenyl]ethanol hydrochloride]
deficit in social recognition, discrimination index (FIG. 4C) [1]: totally compensated the deficit | discrimination index, novel object recognition [2]: able to restore the discrimination index | reduction in the duration of immobility relative to the control group [3]: ≥ 50%
